Results on one substance are retold here after US20260201030A1, “ANTIBODY, ANTIBODY-DRUG CONJUGATE THEREOF AND USE THEREOF” (EVOPOINT BIOSCIENCES CO., LTD., priority 2021, published 2026).

For assay [1], the target named is cynomolgus monkey Claudin18.2 (cynomolgus monkey). Description: FACS on HEK293T-Claudin18.2 (cynomolgus monkey) cells.
The target is the same in assay [2]. Description: FACS, IMAB362 20 µg/mL, HEK293T-Claudin18.2 (cynomolgus monkey) cells.

Bounds are passed on as bounds.

Turning to reference antibody IMAB362, the EC50 in assay [1] was 0.243 µg/mL. In addition, the positive rate (%) in assay [2] was above 95%.
